{
  "source": "patent US9566342B2",
  "about": "“Compounds for treatment of heart failure” (SOLVOTRIN INNOVATIONS LIMITED, priority 2010, dated 2017)",
  "test_system": "MMP-9",
  "experiment": "PMA-stimulated CaCo2 cells, zymography of media, MMP-9",
  "assay_type": "cell-based",
  "details": "equimolar to the Mannich base dinitrate, 450 uM nitro amine (FIG. 1)",
  "note": "Only a part of the results on these compounds is given; other tests are left out.",
  "data": [
    {"smiles": "O=[N+]([O-])OCCNCCO[N+](=O)[O-]", "values": [
      {"measurement": "inhibition of MMP-9 relative to PMA positive control", "result": "over 50%"}
    ]}
  ]
}
